{
  "source": "patent US6555124B1",
  "about": "“Use of (meth)acrylic acid copolymers to increase the permeability of mucous membranes” (BASF Aktiengesellschaft, priority 1996, dated 2003)",
  "tested_on": "caco-2 cell tissue",
  "assay": "Permeation rate of tracer/test substances through caco-2 cell monolayers (Transwell) with polymer added apically",
  "text": "This cell line forms on polycarbonate membranes a tissue assemblage which is very similar in appearance and protein composition to small intestinal […]. In the Transwell system (from Costar, Bodenheim, Germany), this artificial endothelial tissue separates two chambers, which are filled with medium, into the apical and the basolateral compartment. This design allows the permeation of a substance through the caco-2 tissue layer to be determined. […] An improvement in permeability is indicated by the reversible opening of the tight junctions.\nCaco-2 cells were cultivated in DMEM (Dulbeccos Modified Eagle's Medium, from Gibco BRL, Eggenstein, Germany) with 10% FCS (fetal calf serum), 1% L-glutamine and 4.5 mg/ml glucose at 37° C. with 5% CO2 and 95% relative humidity. After trypsinization, the cells were spread at a density of 3×10^5 cells/cm^2 on transwell polycarbonate filters. Cells between the 30th and 50th passage were used to form monolayers. The monolayers were employed in the experiment 15-21 days (medium change every three days) after spreading of the cells.\nBefore the experiment, the caco-2 cell tissue was washed in the Transwell filter inserts with PBS (phosphate buffer saline). Then the apical compartment was filled with EBSS (Earl's buffered salt solution, pH 6) and the basolateral compartment was filled with DMEM. After addition of the polymer to be tested, which had been neutralized to pH 7, [Kollicoat® MAE 30D (ethyl acrylate/methacrylic acid 1:1, BASF), Eudragit® L100 (methacrylic acid/methyl methacrylate 1:1, Röhm), Eudragit® S100 (methacrylic acid/methyl methacrylate 1:2, Röhm)] in a concentration of 0.5-3% by weight and of the tracer substance into the apical compartment, samples were taken after 24 hours, and the permeation rate of the tracer substance was determined.\nThe experiments were analyzed by fluorescence spectrophotometry (Spex Fluorolog 1680: excitation wavelength: 488 nm, emission wavelength: 513 nm), and in the case of C22H32N6O4 by HPLC (column material: Vidac C-18; mobile phase: water/acetonitrile/0.1% trifluoroacetic acid; detection: 240 nm), the experimental results are compiled in Table 1. Measurements which were not done have been indicated by “−”.",
  "key": {"[1]": {"settings": "Control (no polymer), caco-2 monolayer, apical EBSS pH 6, samples after 24 hours"}, "[2]": {"settings": "with Kollicoat MAE 30 D 1.0% by weight (neutralized to pH 7) apical, 24 hours"}, "[3]": {"settings": "with Kollicoat MAE 30 D 3.0% by weight (neutralized to pH 7) apical, 24 hours"}},
  "data": [
    {"substance": "fluorescein-isothiocyanate-dextran [Dextran-FITC 11000]", "values": [
      {"measurement": "Permeation rate", "setting": "[1]", "result": "2.3 (cm/sec) · 10^−8"},
      {"measurement": "Permeation rate", "setting": "[2]", "result": "17.0 (cm/sec) · 10^−8"},
      {"measurement": "Permeation rate", "setting": "[3]", "result": "769 (cm/sec) · 10^−8"}
    ]},
    {"substance": "fluorescein-isothiocyanate-dextran [Dextran-FITC 4400]", "values": [
      {"measurement": "Permeation rate", "setting": "[1]", "result": "0.8 (cm/sec) · 10^−8"},
      {"measurement": "Permeation rate", "setting": "[2]", "result": "9.6 (cm/sec) · 10^−8"},
      {"measurement": "Permeation rate", "setting": "[3]", "result": "935 (cm/sec) · 10^−8"}
    ]}
  ]
}
